The values below come from patent publication US10793568B2, “Hormone receptor modulators for treating metabolic conditions and disorders” (ARDELYX, INC., priority 2016, dated 2020).

Amino acid sequences for entries named in this document (tags omitted). A change or cut given only in a name is not applied to a line headed by its entry. Residues count along the entry.
UniProt Q96RI1, 262-486 limits assumed: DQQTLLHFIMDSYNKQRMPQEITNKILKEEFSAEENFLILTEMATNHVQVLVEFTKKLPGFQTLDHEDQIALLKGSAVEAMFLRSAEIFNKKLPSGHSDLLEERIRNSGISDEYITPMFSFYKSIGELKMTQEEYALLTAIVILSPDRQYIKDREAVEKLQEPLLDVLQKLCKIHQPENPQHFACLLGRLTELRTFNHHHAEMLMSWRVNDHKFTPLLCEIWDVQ
UniProt P04386, 1-147 partner limits assumed: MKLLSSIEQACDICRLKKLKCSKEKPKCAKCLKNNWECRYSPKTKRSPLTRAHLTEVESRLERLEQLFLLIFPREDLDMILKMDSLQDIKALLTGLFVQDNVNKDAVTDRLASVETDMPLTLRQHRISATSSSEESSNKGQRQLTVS

Assay [1] has as its target human Farnesoid X receptor ligand-binding domain/Gal4 DNA binding domain chimera (Homo sapiens (Human), UniProt Q96RI1). Put plainly: Cell-based assay of FXR activation (FXR-UAS-bla HEK 293T beta-lactamase reporter). Conditions: cellular FXR beta-lactamase reporter assay. In general terms: A reporter such as luciferase makes a cellular process visible.
The target in assay [2] is ligand binding domain of human FXR (Homo sapiens (Human), UniProt Q96RI1). Put plainly: FXR ligand binding assay (LanthaScreen TR-FRET, SRC2-2 peptide recruitment). (Time-resolved FRET reads energy transfer from a long-lived donor to a nearby acceptor.)
The mark [3] stands for this setting: extent of activation relative to GW4064.

With `CCCCS(=O)(=O)NC(=O)c1ccc(N2C[C@@H]3C[C@H]2C[C@H]3OCc2c(-c3ccccc3C(F)(F)F)noc2C2CC2)c(F)c1`, the negative logarithm of the EC50 (pEC50) was 9.8 in assay [1] (FXR-UAS-bla HEK 293T cells, 16 h, pEC50 = -log EC50) and 8.4 in assay [2] (-log EC50, concentration required to produce 50% activation). Moreover, the entries for the “% Efficacy” value in assay [1] (setting [3]) and in assay [2] (setting [3]) were 115% and 208%, respectively.

The pEC50 is −log10 of the EC50, conventionally taken in molar units. A higher pEC50 goes with a low EC50.
